Values quoted from earlier work, collected in US7226619B1, “Material for controlling diversion of medications” (PharmoRx Inc., priority 2004, dated 2007).

By UniProt entry, the sequences of proteins in these tests, tags left out.
UniProt P10635, whole entry: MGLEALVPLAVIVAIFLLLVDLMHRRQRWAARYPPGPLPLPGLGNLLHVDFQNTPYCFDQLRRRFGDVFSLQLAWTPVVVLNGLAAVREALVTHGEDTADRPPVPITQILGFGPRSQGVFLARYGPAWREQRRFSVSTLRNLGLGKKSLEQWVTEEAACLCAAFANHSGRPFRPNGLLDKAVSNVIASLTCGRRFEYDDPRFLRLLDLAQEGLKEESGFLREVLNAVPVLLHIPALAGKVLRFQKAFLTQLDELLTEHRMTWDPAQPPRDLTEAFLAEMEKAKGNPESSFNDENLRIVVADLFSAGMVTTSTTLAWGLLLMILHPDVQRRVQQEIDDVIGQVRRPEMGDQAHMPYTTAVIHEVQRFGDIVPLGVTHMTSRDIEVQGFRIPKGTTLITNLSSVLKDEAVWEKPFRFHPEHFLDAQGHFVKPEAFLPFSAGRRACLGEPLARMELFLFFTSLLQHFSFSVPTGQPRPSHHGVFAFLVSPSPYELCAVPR

Target: 2D6 component of the P450 metabolic system (Homo sapiens, UniProt P10635)

CNCCC(Oc1ccc(C(F)(F)F)cc1)c1ccccc1 (stereo not shown) [fluoxetine]
inhibitor of 2D6 (in words): strong inhibitors
